Laboratory results from publication PMC10154247, “Complex regulation in a Comamonas platform for diverse aromatic carbon metabolism” (Nature Chemical Biology, 2023).

Target: T1, ME-2 (Comamonas testosteroni, UniProt B7X1D4)
T1 construct: gene CtesDRAFT_PD5092
T1 sequence (B7X1D4 2-769): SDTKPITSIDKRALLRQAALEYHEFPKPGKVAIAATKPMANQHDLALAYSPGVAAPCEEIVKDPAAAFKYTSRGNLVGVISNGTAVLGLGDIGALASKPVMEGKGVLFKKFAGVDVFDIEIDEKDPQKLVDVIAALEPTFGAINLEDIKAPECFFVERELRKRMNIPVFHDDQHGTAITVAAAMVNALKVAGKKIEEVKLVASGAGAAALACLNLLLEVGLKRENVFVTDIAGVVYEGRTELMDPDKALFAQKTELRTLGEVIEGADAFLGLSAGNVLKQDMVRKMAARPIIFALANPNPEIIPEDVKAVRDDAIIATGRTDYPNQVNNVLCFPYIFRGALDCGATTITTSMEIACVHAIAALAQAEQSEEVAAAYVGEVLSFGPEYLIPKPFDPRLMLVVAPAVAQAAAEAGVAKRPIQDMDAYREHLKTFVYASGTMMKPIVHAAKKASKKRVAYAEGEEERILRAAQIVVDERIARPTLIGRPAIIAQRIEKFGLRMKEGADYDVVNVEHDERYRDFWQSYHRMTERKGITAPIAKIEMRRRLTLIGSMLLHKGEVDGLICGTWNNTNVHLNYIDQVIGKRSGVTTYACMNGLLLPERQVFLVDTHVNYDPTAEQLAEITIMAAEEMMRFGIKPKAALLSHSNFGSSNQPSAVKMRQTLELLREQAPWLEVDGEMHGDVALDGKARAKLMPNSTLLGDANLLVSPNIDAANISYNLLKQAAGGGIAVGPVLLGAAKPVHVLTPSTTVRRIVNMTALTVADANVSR
Settings: 20 mM L-malate, 5 mM MnCl2, pH 7.5, 30 °C

SMILES: NC(=O)c1ccc[n+]([C@@H]2O[C@H](COP(=O)(O)OP(=O)(O)OC[C@H]3O[C@@H](n4cnc5c(N)ncnc54)[C@H](O)[C@@H]3O)[C@@H](O)[C@H]2O)c1 [NAD^+]
- NAD(P)H formation at 340 nm: NADH was the preferred cofactor for ME-2 and Mdh
